According to patent US11866430B2, “Naphthyridinone compounds useful as T cell activators” (priority 2018, dated 2024):
pEC50, pIC50: −log10 of the molar value.

Sequences of proteins named here, by UniProt entry; tags and fusion partners are left off. A line that says so, or that is headed by a name, gives the form on record, which may keep a tag or linker.
UniProt P23743, other isoform, or with tags, fused parts or gaps: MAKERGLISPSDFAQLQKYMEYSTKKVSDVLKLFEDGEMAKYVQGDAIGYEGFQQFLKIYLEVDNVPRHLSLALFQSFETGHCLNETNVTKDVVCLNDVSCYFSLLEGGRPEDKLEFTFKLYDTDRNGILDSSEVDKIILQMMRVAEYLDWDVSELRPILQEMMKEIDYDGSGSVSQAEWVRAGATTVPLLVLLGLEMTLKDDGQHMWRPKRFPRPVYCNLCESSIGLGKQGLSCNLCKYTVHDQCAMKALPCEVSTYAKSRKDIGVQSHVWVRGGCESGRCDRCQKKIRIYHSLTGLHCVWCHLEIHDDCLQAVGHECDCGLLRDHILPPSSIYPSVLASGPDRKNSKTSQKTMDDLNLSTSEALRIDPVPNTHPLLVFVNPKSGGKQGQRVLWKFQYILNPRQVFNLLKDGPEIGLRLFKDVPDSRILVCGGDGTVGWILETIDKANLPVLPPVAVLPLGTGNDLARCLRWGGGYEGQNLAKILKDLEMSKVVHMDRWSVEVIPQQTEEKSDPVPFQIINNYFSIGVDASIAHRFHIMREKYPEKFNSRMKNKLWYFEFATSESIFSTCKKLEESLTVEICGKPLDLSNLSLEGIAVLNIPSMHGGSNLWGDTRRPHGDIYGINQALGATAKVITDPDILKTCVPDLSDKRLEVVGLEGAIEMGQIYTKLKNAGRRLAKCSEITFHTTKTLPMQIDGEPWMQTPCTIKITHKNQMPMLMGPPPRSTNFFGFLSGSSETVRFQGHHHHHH

How the values were obtained:
human DGKα [1] = molecular target: T1, human DGKα (Homo sapiens (Human), UniProt P23743); test: biochemical; format: biochemical
Procedure: (§1) The DGKα and DGKζ reactions were performed using either extruded liposome (DGKα and DGKζ LIPGLO assays) or detergent/lipid micelle substrate (DGKα and DGKζ assays). The reactions were carried out in 50 mM MOPS pH 7.5, 100 mM NaCl, 10 mM MgCl2, 1 μM CaCl2, and 1 mM DTT (assay buffer). The reactions using a detergent/lipid micelle substrate also contained 50 mM octyl B-D-glucopyranoside. […] The lipid substrate concentrations were […], 0.25 mM DAG, and 2.75 mM PC for the extruded liposome reactions.
(§2) The compound inhibition studies were carried out as follows: 50 nL droplets of each test compound (top concentration 10 mM with 11 point, 3-fold dilution series for each compound) solubilized in DMSO were transferred to wells of a white 1536 well plate (Corning 3725). A 5 mL enzyme/substrate solution at 2× final reaction concentration was prepared by combining 2.5 mL 4× enzyme solution (20 nM DGKα or DGKζ (prepared as described below) in assay buffer) and 2.5 mL of either 4× liposome or 4× detergent/lipid micelle solution (compositions described below) and incubated at room temperature for 10 minutes. Next, 1 μL 2× enzyme/substrate solution was added to wells containing the test compound and reactions were initiated with the addition of 1 μL 300 uM ATP. […] Luminescence was recorded using an EnVision microplate reader. […] The compounds were evaluated at 11 concentrations to determine IC50. […]

[2] = system: pre-activated CD4 T cells and Raji cells; test: Raji CD4 T Cell IL2 Assay; format: cell-based; conditions: Homo sapiens, read-out: RAJI IC50
human DGKα [3] = molecular target: T1, human DGKα; test: DGKα LIPGLO assay (extruded liposome substrate); format: biochemical
Procedure: as §1, §2

[4] = system: Jurkat AP1-luciferase Reporter; test: DGK AP1-Reporter Assay; format: cell-based; conditions: Homo sapiens, read-out: API-Luciferase Reporter IC50, Table 3
Procedure: The Jurkat AP1-luciferase Reporter was generated using the Cignal Lenti AP1 Reporter (luc) Kit from SABiosciences (CLS-011L).
The sample size was 30 nl per well; and one destination plate per source plate. The cell suspensions were prepared by transferring 40 mL cells (2×20 mL) to clean 50 mL conical tubes. The cells were concentrated by centrifugation (1200 rpm; 5 mins; ambient temperature). […] The cell plates were incubated for 20 minutes at 37° C., and 5% CO2.
During the incubation, anti-CD3 antibody (αCD3) solutions were prepared by mixing 3 μl αCD3 (1.3 mg/mL) with 10 mL medium [final conc=0.4 μg/mL]. Next, 1.5 μl αCD3 (1.3 mg/mL) was mixed with 0.5 mL medium [final conc=4 μg/mL]. After 20 minutes, 10 μl medium was added to all wells in column 1, wells A to M, and 10 μl αCD3 (4 μg/mL) per well was added in column 1, rows N to P for reference. Then using a multi-channel pipette, 10 μl αCD3 (0.4 μg/mL) per well was added. The αCD3 stimulated +/− compound-treated cells were incubated at 37° C., 5% CO2 for 6 hours.
During this incubation period. Steady-Glo (Promega E2520) reagent was slowly thawed on to ambient temperature. Next, 20 μl Steady-Glo reagent per well was added using a multi-drop Combi-dispenser. […] Samples were characterized by measuring the Relative Light Units (RLU) with an using Envision Plate Reader Instrument on a luminescence protocol.

[5] = system: OT-1 antigen-specific CD8+ T cells with MC38 tumor cells; test: Murine Cytotoxic T Lymphocyte Assay (IFN-γ); format: cell-based; conditions: Mus musculus, MC-38, read-out: msCTL INF-γ IC50, murine CTL IFN-γ (table title reads INF-γ Whole Blood Normalized Agonist EC50)
Text: An antigen-specific cytolytic T-cell (CTL) assay was developed to evaluate functionally the ability of DGKα and DGKζ inhibitors to enhance effector T cell mediated tumor cell killing activity. CD8+ T-cells isolated from the OT-1 transgenic mouse recognize antigen presenting cells, MC38, that present the ovalbumin derived peptide […]. Recognition of the cognate antigen initiates the cytolytic activity of the OT-1 antigen-specific CD8+ T cells.
Functional CTL cells were generated as follows: OT-1 splenocytes from 8-12 week old mice were isolated and expanded in the presence of the […] peptide at 1 μg/mL and mIL2 at 10 U/mL. After three days, fresh media with mIL2 U/mL was added. On day 5 of the expansion, the CD8+ T cells were isolated and ready for use. Activated CTL cells may be stored frozen for 6 months. […] The cells were washed (3×) with fresh media to remove excess peptide. Finally, CTL cells that were pretreated with DGK inhibitors for 1 hour in a 96-well U bottom plate were combined with the antigen loaded MC38 tumor cells at a 1:10 ratio. The cells were then spun at 700 rpm for 5 min and placed in an incubator overnight at 37° C. After 24 hours, the supernatant was collected for analysis of IFN-γ cytokine levels by AlphaLisa purchased from Perkin Elmer.

naïve human CD8 T cells = test: cells; conditions: T-cell, read-out: HuCD8 INFG Normalized EC50, anti-CD3 plus anti-CD28 as baseline, 3 μM Example 40 co-stimulation as 100% activation
Procedure: Frozen naïve human CD8 T cells were thawed in ATM-V media, incubated for 2 h in 37° C., and counted. The 384-well tissue culture plate was coated overnight at 4° C. with 20 μl anti-human CD3 at 0.05 μg/mL in PBS, which was removed off the plate before 40,000 cells per 40 microliters CD8 T cells with 0.1 μg/mL soluble anti-human CD28 were added to each well. The compounds were transferred using an Echo liquid handler to the cell plate immediately after the cells were plated. After 20 h incubation at 37° C. incubator, 3 microliters per well supernatants transferred into a new 384-well white assay plate for cytokine measurement.
Interferon-γ (IFN-γ) was quantitated using the AlphaLISA kit (Cat #AL217) as described by the manufacturer manual (Perkin Elmer). The counts from each well were converted to IFN-γ concentration […].

| SMILES | pIC50 (human DGKα [1]; detergent/lipid micelle substrate, read-out: DGKα IC50) | pIC50 [2] | pIC50 (human DGKα [3]) | pIC50 (human DGKα [1]; DGKα IC50, detergent/lipid micelle substrate) | pIC50 [4] | pIC50 [5] | pEC50 (naïve human CD8 T cells) |
| --- | --- | --- | --- | --- | --- | --- | --- |
| COc1ccc(CN2CCN(c3c(C#N)c(=O)n(C)c4ccc(Cl)nc34)CC2)c(O)c1 [Example 301, 6-chloro-4-{4-[(2-hydroxy-4-methoxyphenyl)methyl]piperazin-1-yl}-1-methyl-2-oxo-1,2-dihydro-1,5-naphthyridine-3-carbonitrile] | 7.17 | 6.77 | – | – | – | – | – |
| Cn1c(=O)c(C#N)c(N2CCN(Cc3ccc(OC(F)(F)F)cc3O)CC2)c2nc(Cl)ccc21 [Example 381, 6-chloro-4-(4-{[2-hydroxy-4-(trifluoromethoxy)phenyl]methyl}piperazin-1-yl)-1-methyl-2-oxo-1,2-dihydro-1,5-naphthyridine-3-carbonitrile] | – | – | 7.14 | 7.74 | 6.72 | 6.15 | 7.15 |
